Assay results taken from PubChem BioAssay AID677 (Vanderbilt High Throughput Screening Facility, 2007).
The entries are a selection whose mix differs from that of the whole data set. Active and inactive are the calls of the source.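 Rule for the calls: active = calcium response below the same-plate mean of wells given acetylcholine alone at its 80%-effect dose, minus 3 SD; inactive = the rest.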

The chains behind the UniProt entries cited, without tags or fusion partners. Where a name states a change or a piece, a line headed by the entry shows the natural chain unless it says otherwise.
UniProt P08482: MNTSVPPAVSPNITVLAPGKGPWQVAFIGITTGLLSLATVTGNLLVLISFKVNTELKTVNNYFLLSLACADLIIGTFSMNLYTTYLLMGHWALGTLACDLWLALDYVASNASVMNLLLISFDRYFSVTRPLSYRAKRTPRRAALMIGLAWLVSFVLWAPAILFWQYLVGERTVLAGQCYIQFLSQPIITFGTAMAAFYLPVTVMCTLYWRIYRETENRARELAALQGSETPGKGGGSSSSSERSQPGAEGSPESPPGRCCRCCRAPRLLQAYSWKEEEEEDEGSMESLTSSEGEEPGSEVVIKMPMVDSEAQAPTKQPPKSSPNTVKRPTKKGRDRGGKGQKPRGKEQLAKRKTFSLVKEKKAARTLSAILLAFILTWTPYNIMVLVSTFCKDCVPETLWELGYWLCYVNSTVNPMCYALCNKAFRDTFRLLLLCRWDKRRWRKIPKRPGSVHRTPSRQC

molecular target: Muscarinic acetylcholine receptor M1 (Rattus norvegicus) (UniProt P08482); assay: rat M1 muscarinic receptor antagonists, confirmation, CHO cells, Fluo-4 calcium, duplicate (AID 677); conditions: ACh EC80 antagonism, at 10 µM, stronger effect = lower value;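 note: raw fluorescence intensity difference in arbitrary instrument units and not normalized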

Calcium response (max-min fluorescence), inactive:
COc1cc2nc(N3CCN(C(=O)C4CCCO4)CC3)nc(N)c2cc1OC (configuration not stated) 625

Calcium response (max-min fluorescence), active:
CN1CCC(=C2c3ccccc3CC(=O)c3sccc32)CC1 18.1, Cc1ccccc1C(OCCN(C)C)c1ccccc1 (configuration not stated) 34.7, CNCCCC12CCC(c3ccccc31)c1ccccc12 49.5, CN(C)CCCN1c2ccccc2CCc2ccc(Cl)cc21 15.7, CCOC(=O)N1CCC(=C2c3ccc(Cl)cc3CCc3cccnc32)CC1 443, COc1ccc(CCN2CCC(Nc3nc4ccccc4n3Cc3ccc(F)cc3)CC2)cc1 134
